Measurements from PMC5363571 (Oncotarget, 2016).

Amino acid sequences for entries named in this document (tags omitted).
UniProt Q93009, whole entry: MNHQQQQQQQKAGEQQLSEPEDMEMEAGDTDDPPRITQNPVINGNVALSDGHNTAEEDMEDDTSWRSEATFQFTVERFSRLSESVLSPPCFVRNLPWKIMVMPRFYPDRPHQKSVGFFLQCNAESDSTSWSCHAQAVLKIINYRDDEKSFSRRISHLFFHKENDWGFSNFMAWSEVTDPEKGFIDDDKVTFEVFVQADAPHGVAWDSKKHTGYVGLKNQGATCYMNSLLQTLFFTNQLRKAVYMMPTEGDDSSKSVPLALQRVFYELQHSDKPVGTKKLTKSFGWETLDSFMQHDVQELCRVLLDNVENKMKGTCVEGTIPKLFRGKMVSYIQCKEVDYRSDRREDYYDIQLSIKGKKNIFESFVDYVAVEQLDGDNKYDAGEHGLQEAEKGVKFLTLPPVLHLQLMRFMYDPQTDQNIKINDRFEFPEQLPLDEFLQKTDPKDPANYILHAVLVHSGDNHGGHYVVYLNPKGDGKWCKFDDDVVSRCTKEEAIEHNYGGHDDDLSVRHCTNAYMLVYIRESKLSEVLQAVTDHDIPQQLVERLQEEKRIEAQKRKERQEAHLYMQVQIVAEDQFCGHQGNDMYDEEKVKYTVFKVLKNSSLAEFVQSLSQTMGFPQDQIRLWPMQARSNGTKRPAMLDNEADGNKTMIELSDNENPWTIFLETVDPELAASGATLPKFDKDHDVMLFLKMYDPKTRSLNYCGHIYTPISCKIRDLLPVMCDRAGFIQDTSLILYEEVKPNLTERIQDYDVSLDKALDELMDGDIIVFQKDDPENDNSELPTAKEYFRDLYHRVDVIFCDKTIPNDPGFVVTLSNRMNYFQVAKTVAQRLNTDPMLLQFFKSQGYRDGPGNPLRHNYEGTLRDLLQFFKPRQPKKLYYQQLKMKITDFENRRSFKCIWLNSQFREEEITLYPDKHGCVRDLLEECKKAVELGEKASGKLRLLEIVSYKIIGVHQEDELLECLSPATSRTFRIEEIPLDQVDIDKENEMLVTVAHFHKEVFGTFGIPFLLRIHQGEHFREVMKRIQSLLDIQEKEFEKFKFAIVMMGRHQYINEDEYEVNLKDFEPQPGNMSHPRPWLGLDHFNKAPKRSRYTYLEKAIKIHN

Molecular target: USP7 (Homo sapiens, UniProt Q93009)
Parameters: Ub-AMC hydrolysis by recombinant USP7 (20 nM), 30 min pre-incubation, fluorescence read-out
Conditions: inhibitor

Row | Structure (SMILES) | % Inhibition at 50 μM
1 | CC[C@@]1(O)C(=O)OCc2c1cc1n(c2=O)Cc2cc3cc(O)ccc3nc2-1 [10-hydroxycamptothecin] | <5%
2 | O=P1(N(CCCl)CCCl)NCCCO1 (centres unmarked) [Cyclophosphamide monohydrate] | <5%
